# US10138207B2, “Benzomorphan analogs and the use thereof” (priority 2012, dated 2018)
# Sequences of proteins named here, by UniProt entry; tags and fusion partners are left off. A change or cut given only in a name is not applied to a line headed by its entry.
# UniProt P35372, whole entry, looked up: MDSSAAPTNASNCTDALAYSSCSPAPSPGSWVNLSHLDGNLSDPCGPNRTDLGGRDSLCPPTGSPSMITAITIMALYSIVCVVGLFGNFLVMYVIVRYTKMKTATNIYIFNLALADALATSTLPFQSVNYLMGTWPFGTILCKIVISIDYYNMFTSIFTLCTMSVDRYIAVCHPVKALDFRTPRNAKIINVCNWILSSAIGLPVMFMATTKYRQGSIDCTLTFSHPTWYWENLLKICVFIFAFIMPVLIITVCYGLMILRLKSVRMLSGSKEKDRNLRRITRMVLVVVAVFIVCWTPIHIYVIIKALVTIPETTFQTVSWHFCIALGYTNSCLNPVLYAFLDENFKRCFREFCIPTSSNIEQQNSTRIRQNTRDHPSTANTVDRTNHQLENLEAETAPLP
# UniProt P41145: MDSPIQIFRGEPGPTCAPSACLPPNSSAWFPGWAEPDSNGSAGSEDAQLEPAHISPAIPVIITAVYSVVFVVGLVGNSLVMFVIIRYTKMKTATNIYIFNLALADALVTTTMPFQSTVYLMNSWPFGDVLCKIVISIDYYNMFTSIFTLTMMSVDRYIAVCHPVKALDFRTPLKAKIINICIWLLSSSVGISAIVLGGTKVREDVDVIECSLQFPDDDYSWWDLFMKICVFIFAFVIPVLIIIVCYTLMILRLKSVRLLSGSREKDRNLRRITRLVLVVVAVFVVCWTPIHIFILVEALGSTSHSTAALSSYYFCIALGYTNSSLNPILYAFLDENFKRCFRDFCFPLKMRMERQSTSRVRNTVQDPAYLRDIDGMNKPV
# Legend:
# μ-opioid receptor = μ-opioid receptor (Homo sapiens, UniProt P35372); assay: μ-opioid receptor [35S]GTPγS functional assay, U-2 OS cells; type: biochemical; conditions: relative to DAMGO
# κ opioid receptor = κ opioid receptor (Homo sapiens, UniProt P41145); assay: κ-opioid receptor radioligand dose-displacement binding assay ([3H]-U69,593); conditions: read-out: Ki Opioid Receptor κ; HEK-293 or CHO cells
SMILES,GTPγS μ Emax (μ-opioid receptor),Ki (κ opioid receptor)
"CN1CC[C@@]2(C)c3cc(O)ccc3C[C@@H]1[C@@H]2NCCc1ccc(F)cc1 [Compound 101, (2R,6S,11R)-11-((4-fluorophenethyl)amino)-3,6-dimethyl-1,2,3,4,5,6-hexahydro-2,6-methanobenzo[d]azocin-8-ol]",104.00 ± 2.08%,–
"COc1ccc2c(c1)[C@@]1(C)CCN(C)C(C2)C1N1CCC(N)CC1 (stereo partly drawn) [Compound 70, 1-((6R)-8-methoxy-3,6-dimethyl-1,2,3,4,5,6-hexahydro-2,6-methanobenzo[d]azocin-11-yl)piperidin-4-amine]",–,4.72 µM
